Earlier results, collected in PubChem BioAssay AID1811 (Shanghai Institute of Organic Chemistry, 2009).
This is one part of the list. Active and inactive are the calls of the source. Where no limit is named, active and inactive come without a cut-off here.

Test system: serine/threonine-protein kinase 6
Assay: PubChem AID 1811
Details: PDB complex binding affinities from literature

Row | SMILES | outcome
1 | CO[C@@H](C(=O)N1Cc2[nH]nc(NC(=O)c3ccc(N4CCN(C)CC4)cc3)c2C1)c1ccccc1 | active
2 | CN1CCN(c2ccc(C(=O)Nc3n[nH]c4c3CN(C(=O)Cc3cccs3)C4)cc2)CC1 | active
